## AlphaSeq binding of Ab-14 heavy chain variants to a spike HR2 peptide

Data: MIT Lincoln Laboratory AlphaSeq set, Engelhart et al. 2022, doi:10.1038/s41597-022-01779-4, as distributed in FLAb.

Antigen: PDVDLGDISGINAS, a 14-residue peptide of the SARS-CoV-2 spike HR2 region.

Ab-14 is the parent antibody, in scFv form: VH, then a (GGGGS)3 linker, then VL. The light chain is unchanged in all variants.
VH: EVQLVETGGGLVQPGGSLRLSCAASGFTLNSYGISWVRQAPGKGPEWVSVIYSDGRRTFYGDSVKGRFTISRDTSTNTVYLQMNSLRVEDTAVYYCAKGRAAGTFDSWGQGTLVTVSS
VL: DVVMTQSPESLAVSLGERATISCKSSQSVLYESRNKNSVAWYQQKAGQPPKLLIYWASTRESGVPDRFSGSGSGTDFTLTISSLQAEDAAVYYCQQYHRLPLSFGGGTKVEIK

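The parent was found by panning a naive human phage display library on the peptide. The library (AAYL49) carries one to three amino acid substitutions per variant, with no insertions or deletions. The scFvs were displayed on barcoded MATa yeast, the peptide on MATalpha yeast. After mating in shaken culture at 30 °C for 16 h, diploids were selected and their barcode pairs sequenced. Scores were corrected for input abundance and mapped to Kd with protein pairs of known affinity run in the same pool. Each pool was mated in three replicate cultures.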

Substitutions are numbered in sequence along the VH above, starting at 1 (not Kabat). Numbers give log10(Kd / nM), so 0 is 1 nM and 3 is 1 µM. Smaller is tighter. "nd" marks a missing value. The strain was present, yet no cells mated with the target were sequenced in that replicate, which points to weak or no binding. Nonspecific signal, from three strains lacking the peptide, appeared in 15% of pairings of library AAYL49, centred on 4.06 (5% of these signals below 2.83); values are not corrected for it. For each scFv, signals with the empty controls are counted beside the result, with their mean in brackets.

changes,"log10 Kd, replicates",empty controls
L29E I34Y R57F,nd nd nd,0/9
G26A R56N Y60L,nd 2.02 nd,0/9
T28S V50G Y60V,4.12 nd nd,3/9 (3.46)
Y52N Y60E S63I,nd 3.41 nd,2/9 (3.71)
N30W D62P G99M,nd nd 2.91,1/9 (5.28)
S53N G55A T58N,3.50 nd 4.44,0/9
R56W S63R S107V,1.08 1.28 1.50,1/9 (4.97)
S31E T58N T104H,nd nd nd,0/9
V50S A101T G103C,nd nd 2.14,0/9
L29M V50S D54E,nd nd nd,2/9 (4.52)
T28W A101V F105H,nd nd nd,0/9
S63C G99C T104M,3.45 3.64 3.57,5/9 (4.00)
S31L D62N F105D,nd nd nd,0/9
S35R S63D F105G,nd nd 3.42,4/9 (3.70)
K65C G103Q D106S,nd nd 5.49,1/9 (3.01)
G33W Y52A A102Y,nd 4.17 nd,2/9 (3.94)
T28E N30G A102T,0.16 0.52 0.37,1/9 (3.64)
F105Y S107K,nd nd nd,0/9
I51C R100Q S107E,nd nd nd,0/9
N30M G55L Y60T,4.50 5.13 nd,5/9 (4.40)
G61Y R100V T104M,nd nd nd,1/9 (2.50)
T28E L29F,1.87 2.41 2.46,1/9 (3.95)
Y52D Y60T G61R,nd 4.37 4.77,0/9
S53N R57I T58G,nd nd nd,1/9 (2.61)
V50Q G99M,4.25 nd nd,3/9 (4.61)
F27S G99C A102F,2.76 nd nd,2/9 (4.33)
F27R G55W R57Q,4.61 3.82 nd,7/9 (4.56)
G33E S53C D54C,nd nd nd,1/9 (2.79)
D62S S63D A102S,nd 3.71 nd,0/9
I51A R56C,nd 4.29 4.50,1/9 (4.30)
T58R Y60A T104L,nd nd nd,0/9
S53T F59D,nd nd nd,0/9
F27H I51V G61Y,nd 2.13 nd,0/9
F27V Y32I G55R,nd 3.84 3.20,0/9
R56W V64Y,4.34 3.71 3.58,1/9 (4.47)
I34E Y52G S63Y,4.11 4.04 nd,0/9
G33H V50E A101L,nd nd nd,1/9 (2.50)
V50I S107F,1.67 1.64 1.37,0/9
T28Q R56V T58K,nd nd nd,0/9
N30W G61F A101I,3.23 1.89 2.64,0/9
Y60P G103N S107I,nd 4.26 nd,1/9 (4.39)
T28Y D62Q T104Q,3.21 2.87 3.30,6/9 (4.75)
F27M N30P G33P,nd nd nd,2/9 (4.21)
S31N I34D S107E,5.74 nd nd,4/9 (4.04)
L29D R57E D106A,nd nd nd,3/9 (4.02)
V50Q R56N S107V,nd 2.79 nd,0/9
Y52K T104C D106V,nd nd nd,0/9
G61I T104E,2.95 2.56 2.81,0/9
G55S K65Y S107G,nd nd 4.03,3/9 (4.85)
S31Y S53C A101F,nd 4.83 nd,1/9 (3.55)